This note sets out measurements from patent US7329650B2, “Peptides and peptide analogues designed from HFE protein and their uses in the treatment of iron overload diseases” (Bio-Rad Laboratories, Inc., priority 1998, dated 2008).

Protein sequences, listed by entry. Tags and fused reporters are not part of them.
UniProt P02786, whole entry: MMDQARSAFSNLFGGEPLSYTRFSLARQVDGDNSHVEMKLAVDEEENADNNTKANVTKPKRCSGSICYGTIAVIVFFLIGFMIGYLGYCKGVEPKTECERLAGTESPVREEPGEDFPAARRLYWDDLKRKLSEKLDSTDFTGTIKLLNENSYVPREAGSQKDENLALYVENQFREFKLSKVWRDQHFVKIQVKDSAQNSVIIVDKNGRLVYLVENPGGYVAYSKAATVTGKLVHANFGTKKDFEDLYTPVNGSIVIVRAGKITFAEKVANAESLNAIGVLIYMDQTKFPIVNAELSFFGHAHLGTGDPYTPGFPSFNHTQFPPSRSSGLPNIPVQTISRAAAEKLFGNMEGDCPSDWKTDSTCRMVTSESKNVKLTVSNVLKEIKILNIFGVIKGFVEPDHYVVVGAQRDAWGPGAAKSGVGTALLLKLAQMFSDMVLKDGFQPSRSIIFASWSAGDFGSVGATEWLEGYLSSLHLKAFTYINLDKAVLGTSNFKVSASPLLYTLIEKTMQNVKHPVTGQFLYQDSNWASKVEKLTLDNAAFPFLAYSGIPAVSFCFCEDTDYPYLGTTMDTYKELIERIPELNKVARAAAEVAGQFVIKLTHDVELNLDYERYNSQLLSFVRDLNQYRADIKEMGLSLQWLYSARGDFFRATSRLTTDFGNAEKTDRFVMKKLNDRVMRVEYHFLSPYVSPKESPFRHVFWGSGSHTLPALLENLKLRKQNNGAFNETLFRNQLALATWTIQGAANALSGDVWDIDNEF

The test concerns the target T1, transferrin receptor (TfR) (Homo sapiens, UniProt P02786).
T1 construct: endogenous in cells; host or cells: HeLa cells
The test is described as follows: Measurement of cell-associated transferrin (labeled transferrin binding to HeLa cells, Scatchard analysis). Conditions: for effect on TfR affinity for transferrin (in words): HeLa cells, peptide 50 μM or soluble HFE/β2m 100 nM alone. The method, then: The peptides were solubilized in 0.1N HCl at a concentration of 1 mM for 30 min. at room temperature and stored at 4° C. An aliquot of this solution was diluted with DME plus mg/ml BSA to a concentration of 50 μM and neutralized with 1 M Hepes pH 7.5 to a final concentration of 25 mM Hepes.
HeLa cells were grown to 80-90% confluence at 37° C. at 5% CO2. The cells were washed twice with PBS and detached from the plates using 4 mM EDTA/PBS. The cells were counted and diluted to 5×10^6 cells per ml in DMEM 1% fetal bovine serum (GIBCO) and 5×10^5 suspended cells were used for the TfR binding assay. Binding assays were all done in duplicate. Nonspecific binding was determined. The peptide/media solution was added to the cells in a final volume of 200 μl for 30 min. at 37 ° C. Labeled transferrin (New England Nuclear) was added to the cells at concentrations ranging from 0.5-15 nM. The reaction volume was 500 μL. Incubations were carried out for 20 min. for experiments performed at 37° C., or 90 min on ice for experiments performed at 4° C. At the end of the incubation, the cells were pelleted at 3,000 rpm for 2 min. The supernatant was decanted and radioactivity counted. […] After the final wash, the cells were resuspended in PBS and bound radioactivity was counted. The amount of transferrin bound to the cells was calculated by dividing the cpm bound to the cells by the cpm counted in the supernatant, this ratio was converted to a molar value by multiplying by the amount of transferrin used in the experiment. The Kcell association and the apparent KD were calculated from the negative slope of the line generated by Scatchard analysis or by analyzing the binding curves utilizing nonlinear regression; both methods yielded essentially the same results.
To determine the amount of nonspecific transferrin binding, cells were simultaneously incubated under the same conditions but in the presence of 100× the molar concentration of cold holo-transferrin (Sigma). After 20 min (37° C.), the media was removed and counted in a Beckman 9600 scintillation counter. […]

“soluble HFE/β2m heterodimers: soluble heterodimers of HFE protein and β2-microglobulin, used at 100 nM as positive comparator”: the “increase of KD of TfR for transferrin versus HeLa cells alone” value (FIG. 1 experiment, peptide 50 μM or soluble HFE/β2m 100 nM) is recorded as “approximately 2 fold”. Further, the “effect on TfR affinity for transferrin (in words)” value is given as “characteristic increase in KD” (FIG. 2 experiment) and “significant increase in KD” (FIG. 3 experiment).
